Among the data in patent publication US9040516B2, “Uracil derivative and use thereof for medical purposes” (SUMITOMO DAINIPPON PHARMA CO., LTD., priority 2011, dated 2015) are IC50 values, retold here.

Protein sequences, listed by entry. Tags and fused reporters are not part of them. Residues count along the entry.
UniProt P08246, 30-267 limits assumed: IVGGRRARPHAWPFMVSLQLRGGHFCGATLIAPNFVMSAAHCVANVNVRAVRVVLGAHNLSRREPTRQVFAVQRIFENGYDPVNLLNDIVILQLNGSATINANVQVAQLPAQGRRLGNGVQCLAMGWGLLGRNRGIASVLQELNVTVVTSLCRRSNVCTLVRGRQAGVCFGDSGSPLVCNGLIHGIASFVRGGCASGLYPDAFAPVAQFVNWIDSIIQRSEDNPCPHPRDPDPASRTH

This experiment concerns the target human neutrophil elastase (Homo sapiens, UniProt P08246). As to the kind of experiment: Inhibitory action 2 against human neutrophil elastase (Test Example 2; fluorogenic substrate MeOSuc-AAPV-AMC, buffer with 400 mM NaCl, 0.2 mg/ml BSA). The settings on record: read-out: IC50 value (compound concentration required for 50% inhibition of human neutrophil elastase), 37° C. The protocol:
Assay buffer (0.4 unit/ml HNE (human neutrophil elastase, available from Elastin Products Company), 200 mM HEPES [N-(2-hydroxyethyl)piperazine-N′-(2-ethanesulfonic acid)], pH 7.5, 400 mM NaCl, 0.2 mg/ml BSA (bovine serum albumin)) 100 μl, water for injection 20 μl and 1% DMSO (dimethyl sulfoxide) solution of the present compound 20 μl were mixed in a 96 well plate and the mixed solutions were pre-incubated at 37° C. for five minutes. After pre-incubation, MeOSuc-AAPV-AMC (methoxysuccinyl-alanyl-alanyl-prolyl-valyl-aminomethyl cumaride (available from Sigma Aldrich Corp.) solution as fluorogenic substrate (which was dissolved in 10% DMSO solution so as to adjust to 0.5 mM) 40 μl was added to the above-prepared mixed solution so as to initiate the reaction, and the mixture was incubated at 37° C. for five minutes. The fluorescence intensity of AMC was measured at an excitation wavelength of 380 nm and a fluorescence wavelength of 460 nm and the inhibition ratio was determined.
On to `Cc1c(-c2c(CN3CCCC3)cnn2-c2ccc(C#N)cc2)c(=O)n(C)c(=O)n1-c1cccc(C(F)(F)F)c1`, for which the IC50 amounted to 41 nM.
Next, `Cc1c(-c2ccnn2-c2ccc(C#N)cc2)c(=O)n([C@H](C)CNC2CCCC2)c(=O)n1-c1cccc(C(F)(F)F)c1`: 5.1 nM.
Next, `CC(=O)N1CCN(Cc2cnn(-c3ccc(C#N)cc3)c2-c2c(C)n(-c3cccc(C(F)(F)F)c3)c(=O)n(C)c2=O)CC1`: 27.2 nM.
Next, `CCn1c(=O)c(-n2c(CC(=O)N3CCOCC3)nnc2-c2ccc(C#N)cc2)c(C)n(-c2cccc(C(F)(F)F)c2)c1=O`: 14.5 nM; `Cc1c(-c2c(CCC(N)=O)cnn2-c2ccc(C#N)cc2)c(=O)n(C)c(=O)n1-c1cccc(C(F)(F)F)c1`: 24.3 nM; `Cc1c(-c2ccnn2-c2ccc(C#N)cc2)c(=O)n([C@H](C)CCNC2CCCC2)c(=O)n1-c1cccc(C(F)(F)F)c1`: 14.2 nM.
`Cc1c(-c2c(S(=O)(=O)C3CCN(C)CC3)cnn2-c2ccc(C#N)cc2)c(=O)n(C)c(=O)n1-c1cccc(C(F)(F)F)c1`: the IC50 amounted to 14 nM.
Next, `Cc1c(-c2ccnn2-c2ccc(C#N)cc2)c(=O)n(C2CCN(CC(F)(F)F)CC2)c(=O)n1-c1cccc(C(F)(F)F)c1`: 7.3 nM; `CCn1c(=O)c(-n2c(CC(=O)NC)nnc2-c2ccc(C#N)cc2)c(C)n(-c2cccc(C(F)(F)F)c2)c1=O`: 28.6 nM.
Next, `Cc1nnc(-c2ccc(C#N)cc2F)n1-c1c(C)n(-c2cccc(C(F)(F)F)c2)c(=O)n(C(C)C)c1=O`: 39.8 nM.
Next, `Cc1c(-c2c(CN3CCOCC3)cnn2-c2ccc(C#N)cc2)c(=O)n(C)c(=O)n1-c1cccc(C(F)(F)F)c1`: 14.3 nM; `CCn1c(=O)c(-c2c(S(N)(=O)=O)cnn2-c2ccc(C#N)cc2)c(C)n(-c2cccc(C(F)(F)F)c2)c1=O`: 13.5 nM; `CCn1c(=O)c(-n2c(-c3ccc(C#N)cc3)nnc2C2CCN(C)CC2)c(C)n(-c2cccc(C(F)(F)F)c2)c1=O`: 21 nM.
On to `Cc1c(-c2ccnn2-c2ccc(C#N)cc2)c(=O)n([C@@H]2CCCN(C)C2)c(=O)n1-c1cccc(C(F)(F)F)c1`, for which the IC50 was determined as 7.4 nM.
Regarding `Cc1c(-c2ccnn2-c2ccc(C#N)cc2)c(=O)n([C@H](C)CC(N)=O)c(=O)n1-c1cccc(C(F)(F)F)c1`, the IC50 came out at 9 nM.
Next, `Cc1nnc(-c2ccc(C#N)cc2)n1-c1c(C)n(-c2cccc(C(F)(F)F)c2)c(=O)n([C@H](C)CS(C)(=O)=O)c1=O`: 16.3 nM.
